For this assay, the target named is Beta-secretase 1 (Homo sapiens, UniProt P56817). The assay can be described thus: Inhibition of BACE1 in human H4 cells transfected with APP695 assessed as […] incubated for 18 hrs by ELISA. Type of assay: cell-based.

Protein sequences, listed by entry. Tags and fused reporters are not part of them. Lines headed by an entry give the natural chain unless they say otherwise; changes in a name come on top.
UniProt P56817: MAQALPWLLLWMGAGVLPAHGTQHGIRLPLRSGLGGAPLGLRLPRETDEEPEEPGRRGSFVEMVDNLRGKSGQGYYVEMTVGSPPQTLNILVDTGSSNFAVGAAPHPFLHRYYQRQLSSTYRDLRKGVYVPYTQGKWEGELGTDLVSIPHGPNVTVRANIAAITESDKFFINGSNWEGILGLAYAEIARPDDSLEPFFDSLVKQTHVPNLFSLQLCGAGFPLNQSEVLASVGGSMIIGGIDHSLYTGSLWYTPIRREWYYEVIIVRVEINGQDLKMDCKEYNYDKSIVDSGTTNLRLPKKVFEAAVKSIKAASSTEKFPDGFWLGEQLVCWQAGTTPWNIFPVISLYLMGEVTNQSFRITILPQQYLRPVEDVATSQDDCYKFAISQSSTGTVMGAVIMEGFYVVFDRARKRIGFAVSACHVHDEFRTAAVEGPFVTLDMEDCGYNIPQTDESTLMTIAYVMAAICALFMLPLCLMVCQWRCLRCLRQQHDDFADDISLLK

Experimental findings from ChEMBL document CHEMBL4342403, “New evolutions in the BACE1 inhibitor field from 2014 to 2018” (Bioorg Med Chem Lett, 2019) are described below.

As for `C[C@H]1C[C@H]2CSC(N)=N[C@@]2(c2nc(NC(=O)c3ccc(OC(F)F)cn3)cs2)CO1`, the IC50 is 5 nM.
